# Apparent affinities of Ab-14 variants for a coronavirus HR2 peptide

Data: MIT Lincoln Laboratory AlphaSeq set, Engelhart et al. 2022, doi:10.1038/s41597-022-01779-4, as distributed in FLAb.

Target: peptide PDVDLGDISGINAS, taken from heptad repeat 2 (HR2) of SARS-CoV-2 spike.

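The parent was found by panning a naive human phage display library on the peptide. Variants in AAYL49 differ from the parent at up to three CDR positions; double and triple changes were sampled at random. The assay is AlphaSeq: two haploid yeast populations carry antibody and antigen on their surface. Binding brings cells together so that they mate, and sequencing counts the barcode pairs among the diploids. Scores were corrected for input abundance and mapped to Kd with protein pairs of known affinity run in the same pool. There are three technical replicates.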

Ab-14 is the parent antibody, in scFv form: VH, then three GGGGS repeats, then VL. The light chain is unchanged in all variants.
VH: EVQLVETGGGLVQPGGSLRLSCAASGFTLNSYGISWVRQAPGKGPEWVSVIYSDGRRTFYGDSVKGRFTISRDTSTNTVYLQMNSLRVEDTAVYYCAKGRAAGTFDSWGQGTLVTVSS
VL: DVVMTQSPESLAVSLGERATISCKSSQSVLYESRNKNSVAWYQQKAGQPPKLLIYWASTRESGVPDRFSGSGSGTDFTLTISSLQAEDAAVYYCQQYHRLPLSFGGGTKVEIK

Positions count from residue 1 of the parent VH; G26R puts R in place of G.
Scale: log10 of Kd in nM, estimated from mating counts; low values are strong binders.
Replicates are averaged; those with no signal do not enter the mean.
Where no diploid with the target was found in any replicate, the entry reads "no signal": below detection, most likely a poor binder, though not proof of it.
The list is sorted by this average, lowest first, undetected variants last.

changes,mean log10 Kd (nM),replicates with signal
G26R A101N,0.88,3/3
T28D G61Q T104L,0.96,3/3
S35N A101S G103M,1.10,3/3
A101N A102T T104Y,1.21,3/3
F59A S107I,1.68,3/3
T28D N30M S63I,1.85,3/3
Y32M S63R A101W,1.90,3/3
T28W S31Q D62T,2.20,2/3
G26P F27R D62W,2.31,1/3
Y60F D106H,2.54,1/3
I34M G55P K65G,2.96,2/3
G26D L29R T104W,3.12,1/3
L29K V50C S63K,3.21,1/3
N30T Y60M F105I,3.57,3/3
F27K Y32P,3.63,3/3
G26T V50Q S53L,3.69,1/3
I34R T58I,3.69,1/3
S63I A102Q G103D,3.97,1/3
G55H A101F F105R,4.09,2/3
G26C S31Q,4.15,1/3
S35M G61E S107W,4.33,3/3
V50C R56G K65P,4.40,2/3
G26Q I34W R100K,4.53,1/3
S31I Y32K F59W,4.61,1/3
S35C I51L S107P,4.68,3/3
I34S R57P Y60N,4.86,1/3
F27D T28P Y52R,4.92,1/3
Y52H F59C D62L,4.98,2/3
Y32P V64F K65Q,5.03,1/3
Y52I A102E S107T,5.59,1/3
I34V R56M D62I,no signal,0/3
G26H S53F S107E,no signal,0/3
S53Y T58C T104D,no signal,0/3
N30T R56L F105T,no signal,0/3
D54S A102Y,no signal,0/3
I51K R57M V64K,no signal,0/3

Continued, with the values leading:

mean log10 Kd (nM),replicates with signal,changes
no signal,0/3,I51R K65A R100L
no signal,0/3,I51L D54Y G99A
no signal,0/3,G33Y S63D F105K
no signal,0/3,G26I F27L S35D
no signal,0/3,Y52T R57L R100E
no signal,0/3,I34E S53Q R100T
no signal,0/3,V64H G99S D106F
no signal,0/3,Y52P V64L F105Y
no signal,0/3,F27R G55Y V64M
no signal,0/3,S53C G61K A102N
no signal,0/3,D54H G61P S107R
no signal,0/3,S35I G55N F59R
no signal,0/3,F27L D62V A102N
no signal,0/3,I51N D54Q S63W
no signal,0/3,D54E R56D V64N
no signal,0/3,S35A R57M D106V
no signal,0/3,T28W I34A G55R
no signal,0/3,R56L A102Q
no signal,0/3,G26E G99W A102I
no signal,0/3,S53I G55N A102N
no signal,0/3,S31E V50G
no signal,0/3,I34R G99Y A101I
no signal,0/3,N30K S35V
no signal,0/3,F27A G33P D106W
no signal,0/3,N30M I34R G55F
no signal,0/3,L29T I51Q R57Q
no signal,0/3,Y32C S53M S107C
no signal,0/3,S53G D54K T104R
no signal,0/3,S31V Y32C R100A
no signal,0/3,F59K D62W D106I
no signal,0/3,G26T S35G T58W
no signal,0/3,G99L S107T
no signal,0/3,S31C I51M A102M
no signal,0/3,S53V G55K F59V
no signal,0/3,V50S S63T V64Y
no signal,0/3,G33Y V50N S107N

The first 11 variants above that were never detected:

changes,mean log10 Kd (nM),replicates with signal
I34V R56M D62I,no signal,0/3
G26H S53F S107E,no signal,0/3
S53Y T58C T104D,no signal,0/3
N30T R56L F105T,no signal,0/3
D54S A102Y,no signal,0/3
I51K R57M V64K,no signal,0/3
I51R K65A R100L,no signal,0/3
I51L D54Y G99A,no signal,0/3
G33Y S63D F105K,no signal,0/3
G26I F27L S35D,no signal,0/3
Y52T R57L R100E,no signal,0/3

Nonspecific signal, from three strains lacking the peptide, appeared in 15% of pairings of library AAYL49, centred on 4.06 (5% of these signals below 2.83); values are not corrected for it.
Parent in this assay: reference entry 0.65, copy in this library 4.11 (one replicate of three).